Here are results for three molecules from ChEMBL document CHEMBL1127536, “2-Azetidinones as inhibitors of cholesterol absorption” (J Med Chem, 1994).

Chains of the proteins cited; added tags and fusions are not shown. Lines headed by an entry give the natural chain unless they say otherwise; changes in a name come on top.
UniProt O70536: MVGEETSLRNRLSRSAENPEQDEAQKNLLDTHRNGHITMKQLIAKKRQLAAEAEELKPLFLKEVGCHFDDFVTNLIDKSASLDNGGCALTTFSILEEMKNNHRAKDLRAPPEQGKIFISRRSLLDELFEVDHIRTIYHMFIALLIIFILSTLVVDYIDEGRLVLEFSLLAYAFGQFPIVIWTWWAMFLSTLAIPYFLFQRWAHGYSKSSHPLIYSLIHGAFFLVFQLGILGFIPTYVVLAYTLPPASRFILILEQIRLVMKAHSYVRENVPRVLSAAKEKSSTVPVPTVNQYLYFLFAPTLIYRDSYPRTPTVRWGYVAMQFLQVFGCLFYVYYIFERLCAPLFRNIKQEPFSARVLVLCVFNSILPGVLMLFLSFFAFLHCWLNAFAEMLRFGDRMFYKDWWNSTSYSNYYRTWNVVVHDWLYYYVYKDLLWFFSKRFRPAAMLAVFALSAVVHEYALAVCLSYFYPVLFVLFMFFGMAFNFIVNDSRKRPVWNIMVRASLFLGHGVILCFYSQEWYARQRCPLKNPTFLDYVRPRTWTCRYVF

The target of the assay is Sterol O-acyltransferase 1 (Rattus norvegicus, UniProt O70536).

The molecule `CC[C@]1(CCCc2ccccc2)C(=O)N(c2c(OC)cc(OC)cc2OC)[C@@H]1c1ccccc1` displayed a 50% inhibitory concentration (IC50) of 12 µM.

On to `COc1ccc(N2C(=O)[C@@](C(=O)Cc3ccccc3)(c3ccccc3)[C@H]2c2ccccc2)cc1`, for which the half-maximal inhibitory concentration (IC50) turned out to be 7.5 µM.

In the case of `CC[C@@]1(CCCc2ccccc2)C(=O)N(c2c(OC)cc(OC)cc2OC)[C@@H]1c1ccccc1`, it took 1.7 µM to reach half-maximal inhibition (IC50).

In general, IC50 refers to the concentration that gives 50% inhibition. High values mean a need for much substance, low ones inhibition by little substance.
